In the assay the target is GLUT1 (Homo sapiens, UniProt P11166). Briefly: Indirect measurement of GLUT1 activity by quantification of intracellular ATP levels (glucose induced ATP increase). Type of assay: cell-based. To be noted: read-out: IC50 regarding glucose induced ATP increase (GLUT1 inhibition); DLD1 cells; 0.1 mM glucose, 1 μM Rotenone, 15 min; CellTiter-Glo ATP readout; IC50 values standardized to cytochalasin B IC50 values. In general terms: ATP-based viability assays read luminescence as a measure of living cells.

By UniProt entry, the sequences of proteins in these tests, tags left out.
UniProt P11166, whole entry: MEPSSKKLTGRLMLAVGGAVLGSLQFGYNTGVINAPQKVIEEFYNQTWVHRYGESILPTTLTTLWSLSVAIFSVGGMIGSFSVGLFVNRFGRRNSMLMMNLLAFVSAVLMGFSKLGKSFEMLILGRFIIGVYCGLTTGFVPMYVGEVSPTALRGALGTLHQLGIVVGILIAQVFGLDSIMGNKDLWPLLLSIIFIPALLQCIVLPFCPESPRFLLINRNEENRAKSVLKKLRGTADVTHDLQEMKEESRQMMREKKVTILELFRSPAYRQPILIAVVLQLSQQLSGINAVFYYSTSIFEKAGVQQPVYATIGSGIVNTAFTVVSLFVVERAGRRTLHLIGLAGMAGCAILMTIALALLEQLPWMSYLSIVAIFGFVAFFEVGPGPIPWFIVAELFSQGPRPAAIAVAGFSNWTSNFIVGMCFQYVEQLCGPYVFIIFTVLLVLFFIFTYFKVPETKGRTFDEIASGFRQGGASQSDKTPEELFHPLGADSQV

The term IC50 denotes the concentration at which inhibition is half-maximal. With `Cc1ccc2nc(C)cc(C(=O)Nc3c(C)nn(Cc4ccc5c(c4)C(C)(C)CCC5(C)C)c3C)c2c1`, the IC50 came out at 3930 nM.
The figure for `Cc1ccc2nc(C)cc(C(=O)Nc3c(C)nn(Cc4ccc(Cl)cc4Cl)c3C)c2c1` is 394 nM.

(Values after patent US20170037028A1 (BAYER PHARMA AKTIENGESELLSCHAFT, priority 2013, published 2017).)
